{"source": "patent US20150285789A1", "about": "“ASSAYS, SYSTEMS, AND METHODS FOR OBTAINING PERSONALIZED ANABOLIC PROFILES” (BOSTON MEDICAL CENTER CORPORATION, priority 2012, published 2015)", "molecules": {"B1": {"name": "BMP-2: bone morphogenetic protein-2, positive control and bone formation-inducing agent (protein, UniProt P12643 283-396, looked up)", "Bone morphogenetic protein 2": "QAKHKQRKRLKSSCKRHPLYVDFSDVGWNDWIVAPPGYHAFYCHGECPFPLADHLNSTNHAIVQTLVNSVNSKIPKACCVPTELSAISMLYLDENEKVVLKNYQDMVVEGCGCR"}}, "key": {"C2C12 cells": {"test_system": "C2C12 cells", "assay": "High-throughput screen for small molecules that augment BMP-2 induced ALP expression (osteoblast conversion)", "assay_type": "cell-based, mouse", "conditions": "positive control wells, DM + BMP-2, 72 h", "excerpt": "FIGS. 4A-4B show a schematic of an exemplary protocol for high-throughput screening of small molecules to investigate BMP-2 induced promotion of osteoblast formation. […] The level of alkaline phosphatase (ALP) activity measured colorimetrically was scored in all wells using three criteria (see Exemplary materials and methods in the Examples section). […] FIG. 4B is a schematic of 5405 compounds tested on C2C12 cells in a 384-well plate format, in duplicate for BMP-2 induced ALP expression*. ALP intensity images were acquired using a Digilab Plate reader. Images were analyzed using three independent criteria and considered for secondary screening and validation in the MC3T3 pre-osteoblast cell line Enhancement of the mRNA and protein levels of the mature osteoblast markers RunX2 and osterix was tested. *Plates were run in duplicate.\nIn the course of the studies on muscle differentiation using the C2C12 cell line, incomplete BMP-2-mediated conversion of C2C12 cells to osteoblasts was observed based on ALP staining with virtually no background in untreated cells. Accordingly, this system was used to screen a library of compounds that augment BMP-2 mediated osteoblast conversion. C2C12 cells were plated at 750 cells per well in a 384-square well plate and were allowed to adhere for 24 h in growth media (GM). […]"}, "MC3T3 cells": {"test_system": "MC3T3 cells", "assay": "TGFβ1 mediated inhibition of osteoblast differentiation, qRT-PCR of Runx2, Osx and Smad 7", "assay_type": "cell-based, mouse", "conditions": "factor alone", "protocol": "MC3T3 cells were treated with media containing 1 ng/mL of TGFβ1 for 24 h and then the media were replaced with BMP-2 or BMP-2 with 100 ng/mL rapamycin. RNA was collected 24 h afterwards and analyzed by qRT-PCR and the ΔΔCT method. (FIG. 10A) Values of Runx2 and Osx transcripts are represented as fold change compared with untreated samples (*indicates p-value=0.02). (FIG. 10B) Values of Smad 7 transcripts. Shown are representative results (average of duplicates) of at least three independent experiments. (*indicates p-value=0.03).\nIt was next sought to determine whether rapamycin and FK506 were equivalently capable of attenuating TGFβ1 mediated decline in osteoblastogenesis, an antagonistic effect that has been previously reported.\nIt was next sought to determine whether Smad-7, a suppressor of Smad-2/3 downstream of TGFβ1, might be a target of rapamycin and/or FK-506.\nTotal RNA was extracted by the TRIzol method as recommended by the manufacturer (Invitrogen). Isolated RNA was cleaned up using the Rneasy Kit (Qiagen) and 500 ng of RNA was reverse-transcribed using the High Capacity cDNA Synthesis Kit (Applied Biosystems #4368813). Taqman expression assays were used for detection. The expression of 18S (Applied Biosystems #4319413E) was used for normalization of gene expression values. […] Quantification was determined using the ΔΔCT method and normalized to the untreated sample."}}}
{"molecule": "B1", "values": [{"measurement": "ALP expression, % of the cells", "setting": "C2C12 cells", "result": "20-30%"}, {"measurement": "Smad-7 levels", "setting": "MC3T3 cells", "result": "induces Smad-7"}]}
